Drawing on ChEMBL document CHEMBL1127469, “Decapeptide agonists of human C5a: the relationship between conformation and spasmogenic and platelet aggregatory activities” (J Med Chem, 1994), this text covers pD2 for three compounds.

In this assay the test system is C5a anaphylatoxin chemotactic receptor 1 (Cavia porcellus). As to the kind of experiment: Tested for pharmacological activity against C5a receptor in Guinea pig lung parenchyma.
The compound `CC(C)C[C@H](NC(=O)CNC(=O)[C@H](CCCCN)NC(=O)[C@H](Cc1ccccc1)NC(=O)[C@H](CO)NC(=O)[C@@H](N)Cc1ccc(O)cc1)C(=O)N[C@@H](CC(C)C)C(=O)N[C@@H](CC(C)C)C(=O)NCC(=O)N[C@@H](CCCN=C(N)N)C(=O)O` gave a pD2 of 4.7.

Turning to `CSCC[C@H](NC(=O)[C@H](CC(=O)O)NC(=O)[C@H](CCCCN)NC(=O)[C@H](Cc1ccccc1)NC(=O)[C@H](CO)NC(=O)[C@@H](N)Cc1ccc(O)cc1)C(=O)N1CCC[C@H]1C(=O)N[C@@H](CC(C)C)C(=O)NCC(=O)N[C@@H](CCCN=C(N)N)C(=O)O`, the pD2 came out at 5.15.

As for `CSCC[C@H](NC(=O)[C@H](CC(=O)O)NC(=O)[C@H](CCCCN)NC(=O)[C@H](Cc1ccccc1)NC(=O)[C@H](CO)NC(=O)[C@@H](N)Cc1ccc(O)cc1)C(=O)N[C@@H](CCC(N)=O)C(=O)N[C@@H](CC(C)C)C(=O)NCC(=O)N[C@@H](CCCN=C(N)N)C(=O)O`, the pD2 was determined as 4.56.
